Measured affinities in a library of Ab-14 light chain variants

The measurements come from Li et al. 2023 (doi:10.1038/s41467-023-39022-2) through the FLAb antibody collection.

Binding partner: SARS-CoV-2 spike HR2 peptide, sequence PDVDLGDISGINAS.

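Phage display of a naive human antibody library on the peptide gave the parent. The variants were designed computationally from a first round of random CDR variants and then made and measured. Their group label is 14L_Ctrl (Ctrl: baseline library sampled from a position-specific scoring matrix, with some repeated check sequences). In AlphaSeq, yeast of one mating type display the scFv and yeast of the other type display the target. Binding brings cells together so that they mate, and sequencing counts the barcode pairs among the diploids. Each replicate has its own calibration line, from reference interactions of the BCL2 family. The assay was run in six technical replicates.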

The variants keep the heavy chain, the linker and the frameworks of Ab-14 (scFv order VH, a (GGGGS)3 linker, VL).
VH: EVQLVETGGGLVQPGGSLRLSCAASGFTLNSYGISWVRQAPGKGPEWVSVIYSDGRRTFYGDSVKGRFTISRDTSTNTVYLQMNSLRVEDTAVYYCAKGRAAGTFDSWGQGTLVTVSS
VL: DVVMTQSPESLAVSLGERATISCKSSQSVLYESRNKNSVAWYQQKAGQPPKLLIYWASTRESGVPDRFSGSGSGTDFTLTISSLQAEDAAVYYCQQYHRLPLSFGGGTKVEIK

Changes read parent residue, position, new residue, counted from the first residue of the VL shown. Numbers give log10(Kd / nM), so 0 is 1 nM and 3 is 1 µM. Smaller is tighter. "ND" means that the variant was in the library but no mating with the target was seen in that replicate; the authors take this as a sign of poor binding, and no number exists.

changes | log10 Kd (nM) by replicate | signal with controls
E61L/S62Q/Q96E/Y97C | ND ND ND ND ND ND | 0/18
V29L/V39I/S58T/Q95P/L100K | ND ND ND ND ND ND | 0/18
S33D/K36S/W56D/E61N/L100P | 1.70 0.99 0.83 0.68 0.79 1.17 | 2/18 (2.55)
L30W/R34S/N35Q | 0.70 0.48 1.10 1.23 0.87 1.12 | 0/18
S25I/S26P/S62V/H98S | -0.15 -0.13 -0.30 -0.41 -0.32 -0.04 | 1/18 (2.44)
S26G/L30W/W56D/S62R | 0.84 0.68 0.17 0.61 0.50 0.56 | 0/18
R34F/N35P/K36H/H98P | ND ND ND ND ND ND | 0/18
S28N/W56D | 0.64 0.58 0.48 0.06 0.34 0.75 | 0/18
K24R/N35M/W56D/S58T | 0.53 0.28 0.36 0.13 0.42 0.45 | 0/18
W56G/S103P | 2.39 1.32 ND 3.03 ND 1.73 | 0/18
V29S/K36E/P101W/S103K | ND ND ND ND ND ND | 0/18
S33M/R34N/N35Q/N37Q/W56E/S103T | 0.49 0.63 0.47 0.50 0.36 0.72 | 0/18
W56Y/S58T/R99T | 2.11 1.51 1.43 1.82 1.48 1.40 | 2/18 (2.09)
S25V/W56D/E61H/P101H | 3.37 1.08 2.31 1.52 ND 1.69 | 1/18 (2.28)
K24E/L100A | ND ND ND ND ND ND | 1/18 (1.48)
Y31Q/K36D/L100M | ND 2.83 1.73 3.04 2.02 2.56 | 1/18 (3.36)
Q27E/W56A/S62D/L100M | 0.96 0.26 0.32 0.57 0.52 0.91 | 0/18
L30I/S33N/K36H/W56G/T59H/R60C/S62I | ND 1.18 ND ND 1.03 ND | 0/18
S33R/K36N | 1.61 2.58 ND 2.95 ND ND | 0/18
Y31D/R34S/S62Y/L100D | ND 2.29 ND ND 1.69 ND | 0/18
S33G/R34Q/K36V/W56E/T59K | ND ND ND ND 0.47 ND | 0/18
Q27H/Y31H/W56A | 0.54 0.93 1.16 0.91 1.29 1.32 | 0/18
S26V/W56G | 0.41 0.40 0.42 0.60 0.38 0.32 | 0/18
K24R/W56G/L100N | ND ND ND ND ND ND | 1/18 (2.66)
S25L/E32T/K36H/Y97P | ND ND ND ND ND ND | 0/18
V29L/R34V/S58D/L100I | ND 1.76 1.86 2.09 1.98 2.10 | 2/18 (3.01)
S25Y/L30Y/R34N | ND 2.33 ND ND 1.74 ND | 1/18 (2.13)
S28G/S62D | ND ND ND 1.33 ND ND | 1/18 (0.74)
V29Y | ND ND ND ND ND ND | 0/18
S25L/K36T/W56N/S62T | -0.19 -0.28 -0.24 -0.40 -0.27 -0.08 | 0/18
K24L/T59C | ND ND 1.76 ND ND ND | 0/18
K24L/E61Y/Q96E | ND ND ND ND ND ND | 0/18

Again, the first 4 entries without any signal:

changes | log10 Kd (nM) by replicate | signal with controls
E61L/S62Q/Q96E/Y97C | ND ND ND ND ND ND | 0/18
V29L/V39I/S58T/Q95P/L100K | ND ND ND ND ND ND | 0/18
R34F/N35P/K36H/H98P | ND ND ND ND ND ND | 0/18
V29S/K36E/P101W/S103K | ND ND ND ND ND ND | 0/18

Three control strains display no target. For all light chain designs, 4% of the pairings with them gave a signal, with a median of 2.64 and one signal in twenty below 1.59, so weak values seen in few replicates may be background. Also given: how often the same scFv was detected with the empty control strains, with their mean in brackets. Values of this round are not directly comparable with the first-round values of the same sequences. The authors' rule: three or more of the six replicates give a measured affinity, fewer mean a poor binder.